The entries are a selection whose mix differs from that of the whole data set. Calls of active or inactive are those of the source. Rule for the calls: active = hit-call score of the fitted dose curve at least 0.9, where 1 is the maximum; inactive = score below 0.9.
Legend:
Settings in all cases: actives raise or lower the signal; mRNA level, 48 h
[1] = read-out: Ezrin (EZR), EZR (gene 7430); assay: LTEA_HepaRG_EZR: Life Technologies and Expression Analysis (LTEA) Assay for Ezrin (EZR) using HepaRG (AID 2283491)
Summary of the method: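 Read-out is EZR transcript level by qRT-PCR, normalized to three housekeeping genes and fitted bidirectionally against the DMSO control. Human HepaRG cells received test chemicals for 48 h at eight half-log concentrations up to 100 uM in 0.5% DMSO.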

By UniProt entry, the sequences of proteins in these tests, tags left out. Where a name states a change or a piece, a line headed by the entry shows the natural chain unless it says otherwise.
UniProt P24462, whole entry, looked up: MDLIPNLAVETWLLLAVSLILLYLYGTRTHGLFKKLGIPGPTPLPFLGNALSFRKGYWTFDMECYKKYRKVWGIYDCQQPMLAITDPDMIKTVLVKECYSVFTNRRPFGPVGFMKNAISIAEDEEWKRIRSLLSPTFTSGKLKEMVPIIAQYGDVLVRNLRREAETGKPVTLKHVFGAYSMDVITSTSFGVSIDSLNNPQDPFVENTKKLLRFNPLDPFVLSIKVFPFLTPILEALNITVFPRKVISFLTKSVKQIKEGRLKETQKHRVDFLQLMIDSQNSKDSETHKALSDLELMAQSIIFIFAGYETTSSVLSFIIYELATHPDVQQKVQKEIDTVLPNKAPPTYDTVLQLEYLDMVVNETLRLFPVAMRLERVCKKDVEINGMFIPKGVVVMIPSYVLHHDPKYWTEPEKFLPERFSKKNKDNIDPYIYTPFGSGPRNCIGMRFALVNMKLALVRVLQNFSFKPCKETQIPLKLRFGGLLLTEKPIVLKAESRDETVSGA
UniProt Q5TCH4: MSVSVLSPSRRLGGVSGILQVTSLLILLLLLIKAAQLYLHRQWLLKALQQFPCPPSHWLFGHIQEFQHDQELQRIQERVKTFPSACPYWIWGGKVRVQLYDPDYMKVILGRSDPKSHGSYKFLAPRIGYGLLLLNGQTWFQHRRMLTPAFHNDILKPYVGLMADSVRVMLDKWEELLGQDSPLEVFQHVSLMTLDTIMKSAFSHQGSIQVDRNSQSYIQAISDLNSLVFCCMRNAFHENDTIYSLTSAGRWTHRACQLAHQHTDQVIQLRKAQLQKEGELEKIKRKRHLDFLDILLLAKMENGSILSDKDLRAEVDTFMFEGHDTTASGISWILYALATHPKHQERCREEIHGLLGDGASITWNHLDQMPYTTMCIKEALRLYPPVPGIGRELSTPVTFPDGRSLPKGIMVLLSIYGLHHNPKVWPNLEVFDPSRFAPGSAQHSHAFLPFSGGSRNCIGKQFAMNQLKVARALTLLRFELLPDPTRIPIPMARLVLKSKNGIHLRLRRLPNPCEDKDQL
UniProt P22680: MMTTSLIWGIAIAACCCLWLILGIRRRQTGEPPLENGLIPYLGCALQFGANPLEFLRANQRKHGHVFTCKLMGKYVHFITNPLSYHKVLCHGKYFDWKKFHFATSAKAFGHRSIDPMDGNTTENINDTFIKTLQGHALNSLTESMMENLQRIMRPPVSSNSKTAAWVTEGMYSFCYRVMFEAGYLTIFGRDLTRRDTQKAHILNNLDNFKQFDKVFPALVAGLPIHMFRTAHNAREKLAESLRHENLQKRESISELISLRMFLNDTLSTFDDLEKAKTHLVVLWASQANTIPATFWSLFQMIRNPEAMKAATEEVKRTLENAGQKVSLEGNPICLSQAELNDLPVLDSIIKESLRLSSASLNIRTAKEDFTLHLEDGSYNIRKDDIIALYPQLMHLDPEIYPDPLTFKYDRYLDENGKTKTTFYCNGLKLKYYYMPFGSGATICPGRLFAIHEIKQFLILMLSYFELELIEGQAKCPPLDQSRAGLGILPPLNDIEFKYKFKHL

[2] = read-out: Cytochrome P450 3A7 (Homo sapiens) (UniProt P24462); assay: LTEA_HepaRG_CYP3A7: Life Technologies and Expression Analysis (LTEA) Assay for CYP3A7 using HepaRG (AID 2283492)
Summary of the method: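 Human HepaRG liver cells, 48 h post-plating, switched to serum-free induction medium and exposed in duplicate for 48 h. Dosing: 100 uM top, half-log dilutions, 8 points, 0.5% DMSO vehicle. Read-out: CYP3A7 mRNA, gain or loss fitted against DMSO baseline.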

[3] = read-out: CYP3A5 (gene 1577); assay: LTEA_HepaRG_CYP3A5: Life Technologies and Expression Analysis (LTEA) Assay for CYP3A5 using HepaRG (AID 2283493)
Summary of the method: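 Differentiated HepaRG cells in serum-free induction medium were dosed 48 h with test chemicals (8-point half-log series, top 100 uM, 0.5% DMSO, duplicate). CYP3A5 mRNA measured by qRT-PCR, normalized to ACTB, GAPDH, POLR2A; bidirectional fit versus DMSO.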

[4] = read-out: Cytochrome P450 4A22 (Homo sapiens) (UniProt Q5TCH4); assay: LTEA_HepaRG_CYP4A22: Life Technologies and Expression Analysis (LTEA) Assay for Cytochrome P450 4A22 (CYP4A22) using HepaRG (AID 2283495)
Summary of the method: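 Readout is CYP4A22 transcript induction or loss, quantified by qRT-PCR and normalized to ACTB, GAPDH and POLR2A. Human HepaRG cells receive test chemicals for 48 h at eight half-log concentrations from 100 uM in 0.5% DMSO.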

[5] = read-out: Glutathione S-Transferase (GSTA2), GSTA2 (gene 2939); assay: LTEA_HepaRG_GSTA2: Life Technologies and Expression Analysis (LTEA) Assay for Glutathione S-Transferase (GSTA2) using HepaRG (AID 2283497)
Summary of the method: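 Human HepaRG cells, plated 48 h, then exposed in serum-free induction medium for 48 h to eight half-log concentrations up to 100 uM in 0.5% DMSO, duplicate. GSTA2 mRNA by qRT-PCR, normalized to ACTB/GAPDH/POLR2A; bidirectional fit versus DMSO.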

[6] = read-out: Glutamate-cysteine ligase catalytic (GCLC), GCLC (gene 2729); assay: LTEA_HepaRG_GCLC: Life Technologies and Expression Analysis (LTEA) Assay for Glutamate-cysteine ligase catalytic (GCLC) using HepaRG (AID 2283498)
Experimental: (§1) LTEA_HepaRG is a cell based, multiplexed-readout assay that uses HepaRG, a human liver cell line, with measurements taken at 48 hours after chemical dosing on a 96-well plate.LTEA_HepaRG_GCLC is one of 102 assay component(s) measured in the LTEA HepaRG cell culture assay. It is a marker of Oxidative Stress.Data from the assay component LTEA_HepaRG_GCLC was analyzed into 1 endpoint. This assay endpoint, LTEA_HepaRG_GCLC, was analyzed with bidirectional fitting relative to DMSO as the negative control and baseline of activity. Using a type of inducible reporter, measures of mRNA induction for gain or loss-of-signal activity can be used to understand regulation of transcription factor activity. To generalize the intended target to other relatable targets, this assay endpoint is annotated to the ligase intended target family, where the subfamily is C-N ligase.
(§2) A total of 1060 chemcials from the ToxCast library were tested in eight-point concentration-response experiments. Cell culture and cytotoxicity assays were conducted at Thermo Fisher Scientific's Custom Services facility (Madison, WI). A single lot of human HepaRG cells (Thermo Fisher Scientific, Frederick, MD) was used for the cell culture experiments. 96-well format collagen type I coated plates of human HepaRG cells were prepared using established methods. Briefly, cryopreserved HepaRG cells were thawed, plated at a density of approximately 100,000 cells/well in HepaRG Thaw, Plate, and General Purpose media (HPRG770, Thermo Fisher Scientific), and incubated for 48 hours. 0.5% DMSO was selected as vehicle control to balance the requisite need of DMSO in HepaRG cultures to maintain differentiation (for example, baseline metabolism, proportions of hepatocytes vs. cholangiocytes), while enabling further hepatic receptor pathway activation (for example, PXR and CAR) in response to chemical exposure. 48 hours after plating, the culture medium was replaced with HepaRG Serum-Free Incudtion Media. Cells were exposed to each test chemical in duplicate and maintained in CO2 incubators for another 48 hours. Chemical plates were thawed to room temperature and 200x concentrations of treatment groups were prepared. 8-point conentration-reponse curves were made with the highest exposure at 100 uM, followed by half-log dilutions, all in 0.5% DMSO. Each test plate contained variouse controls, induction positive controls (1mM phenobarbital), cytotoxicity positive controls ([…] aflatoxin B1), vehicle controls (0.5% DMSO), and total lysis controls (0.5% DMSO). […] Fluidigm's 96.96 Dynamic ArrayTM (Fluidigm, Amsterdam, the Netherlands) technology was used for gene expression analyses by quantitative reverse transcription polymerase chain reaction (qRT-PCR, performed by Quintiles/Expression Analysis, Durham, NC)89. […]

[7] = read-out: growth arrest and DNA damage 45 (GADD45G), GADD45G (gene 10912); assay: LTEA_HepaRG_GADD45G: Life Technologies and Expression Analysis (LTEA) Assay for growth arrest and DNA damage 45 (GADD45G) using HepaRG (AID 2283499)
Experimental: as §1, with “plate.LTEA_HepaRG_GADD45G” for “plate.LTEA_HepaRG_GCLC”, “Cell proliferation, survival, death.Data” for “Oxidative Stress.Data”, “LTEA_HepaRG_GADD45G” for “LTEA_HepaRG_GCLC”, “LTEA_HepaRG_GADD45G,” for “LTEA_HepaRG_GCLC,”, “mutagenicity response” for “ligase”, “Cell proliferation, survival, death.” for “C-N ligase.”
A total of 1060 chemcials from the ToxCast library were tested in eight-point concentration-response experiments. Cell culture and cytotoxicity assays were conducted at Thermo Fisher Scientific's Custom Services facility (Madison, WI). A single lot of human HepaRG cells (Thermo Fisher Scientific, Frederick, MD) was used for the cell culture experiments. 96-well format collagen type I coated plates of human HepaRG cells were prepared using established methods. Briefly, cryopreserved HepaRG cells were thawed, plated at a density of approximately 100,000 cells/well in HepaRG Thaw, Plate, and General Purpose media (HPRG770, Thermo Fisher Scientific), and incubated for 48 hours. […] Fluidigm's 96.96 Dynamic ArrayTM (Fluidigm, Amsterdam, the Netherlands) technology was used for gene expression analyses by quantitative reverse transcription polymerase chain reaction (qRT-PCR, performed by Quintiles/Expression Analysis, Durham, NC)89. […]

[8] = read-out: Glutamate-cysteine ligase regulatory (GCLM), GCLM (gene 2730); assay: LTEA_HepaRG_GCLM: Life Technologies and Expression Analysis (LTEA) Assay for Glutamate-cysteine ligase regulatory (GCLM) using HepaRG (AID 2283500)
Experimental: as §1, with “plate.LTEA_HepaRG_GCLM” for “plate.LTEA_HepaRG_GCLC”, “Cell proliferation, survival, death.Data” for “Oxidative Stress.Data”, “LTEA_HepaRG_GCLM” for “LTEA_HepaRG_GCLC”, “LTEA_HepaRG_GCLM,” for “LTEA_HepaRG_GCLC,”
as §2

[9] = read-out: Fatty Acid-Binding Protein 1 (FABP1), FABP1 (gene 2168); assay: LTEA_HepaRG_FABP1: Life Technologies and Expression Analysis (LTEA) Assay for Fatty Acid-Binding Protein 1 (FABP1) using HepaRG (AID 2283494)
Summary of the method: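 Differentiated human HepaRG cells were exposed in duplicate for 48 h in serum-free induction medium to 8-point half-log concentration series topping at 100 uM in 0.5% DMSO. FABP1 mRNA measured by TaqMan qRT-PCR, normalized to ACTB/GAPDH/POLR2A; bidirectional fit versus DMSO.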

[10] = read-out: Cytochrome P450 7A1 (Homo sapiens) (UniProt P22680); assay: LTEA_HepaRG_CYP7A1: Life Technologies and Expression Analysis (LTEA) Assay for Cytochrome P450 7A1 (CYP7A1) using HepaRG (AID 2283496)
Summary of the method: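 Gene expression endpoint in human HepaRG liver cells treated for 48 h with test chemicals (up to 100 uM, 0.5% DMSO). Values come from bidirectional concentration-response fitting versus DMSO.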

Measured: AC50

O=C1C2CC=CCC2C(=O)N1SC(Cl)(Cl)C(Cl)Cl (stereo unspecified)
inactive: [1] | [2] | [3] | [5] | [6]
active: [4] 26.1 µM | [7] 50 µM | [8] 0.139 µM

CN(C(=O)Cc1cccc2occc12)[C@H]1CC[C@@]2(CCCO2)C[C@@H]1N1CCCC1
inactive: [1] | [3] | [9] | [4] | [10] | [5] | [6] | [7] | [8]
active: [2] 39.8 µM

Cc1cc([N+](=O)[O-])cc([N+](=O)[O-])c1O
active: [1] 50 µM | [2] 12.3 µM | [3] 1.83 µM | [9] 7.02 µM | [4] 11.1 µM | [10] 8.23 µM | [5] 7.7 µM | [8] 89.6 µM
inactive: [6]

CC(C)OP(=S)(OC(C)C)SCCNS(=O)(=O)c1ccccc1
inactive: [1] | [6] | [7] | [8]
active: [2] 79.8 µM | [3] 94.7 µM | [9] 74.6 µM | [4] 15.8 µM | [10] 76.4 µM

Reference: PubChem BioAssay (EPA / NIEHS)
